This is an account of results in paper PMC9841533, “Microtubule-Stabilizing 1,2,4-Triazolo[1,5-a]pyrimidines as Candidate Therapeutics for Neurodegenerative Disease: Matched Molecular Pair Analyses and Computational Studies Reveal New Structure–Activity Insights” (Journal of Medicinal Chemistry, 2022).

The subject of experiment [1] is acetylated α-tubulin (AcTub) levels in QBI293 cells. Briefly: QBI293 cell assay of MT stabilization: acetylated α-tubulin ELISA. In kind it is cell-based.
Experiment [2] deals with total α-tubulin (α-Tub) levels in QBI293 cells. Briefly: QBI293 cell assay: total α-tubulin ELISA. It counts as cell-based. For orientation: An ELISA detects its analyte on a solid surface through an enzyme-linked reagent.
The mark [3] stands for this setting: 4 h, QBI293 cells, 1 uM compound, read-out: AlfaTub (1uM).
[4] abbreviates: 4 h, QBI293 cells, 10 uM compound, read-out: AlfaTub (10 uM).
Where [5] appears, read: QBI293 cells, 4 h incubation, 1 μM, read-out: α-Tub 1 μM, fold-change compared to vehicle (DMSO)-treated cells.
[6] abbreviates: 4 h, QBI293 cells, 1 uM compound, read-out: AcTub (1uM).
[7] abbreviates: 4 h, QBI293 cells, 10 uM compound, read-out: AcTub (10 uM).
[8] abbreviates: QBI293 cells, 4 h incubation, 1 μM.
Setting [9] is: QBI293 cells, 4 h incubation, 1 μM, read-out: AcTub 1 μM, fold-change compared to vehicle (DMSO)-treated cells.
Where [10] appears, read: QBI293 cells, 4 h incubation, 10 μM.
[11] abbreviates: QBI293 cells, 4 h incubation, 10 μM, read-out: AcTub 10 μM, fold-change compared to vehicle (DMSO)-treated cells.
The mark [12] stands for this setting: QBI293 cells, 4 h incubation, 10 μM, read-out: α-Tub 10 μM, fold-change compared to vehicle (DMSO)-treated cells.

Molecules are shown by their SMILES. Where a name gives a salt, the structure may show the parent alone. Read-outs that look alike come from different tables or passages of the source.

Regarding `CC(C)[C@H](C)Nc1c(-c2c(F)cc(F)cc2F)c(Cl)nc2ncnn12` [Compound 7], in experiment [1] (QBI293 cells, 1 uM compound), the “AcTub (1uM)” value is recorded as 1.32 and the “AcTub (1 uM - normalized)” value is 0.06. In experiment [1] (QBI293 cells, 10 uM compound), the “AcTub (10 uM)” value was found to be 3.49 and the “AcTub (10 uM - normalized)” value is given as 0.15.
For `CC(C)[C@@H](Nc1c(-c2c(F)cc(OCCCN(C)C)cc2F)c(Cl)nc2ncnn12)C(F)(F)F` [Compound 22, (R)-3-(4-(5-Chloro-7-((1,1,1-trifluoro-3-methylbutan-2-yl)amino)-[1,2,4]triazolo[1,5-a]pyrimidin-6-yl)-3,5-difluorophenoxy)-N,N-dimethylpropan-1-aminium Formate], the fold induction at 1 µM in experiment [2] (setting [3]) amounted to 1.08; in experiment [2] (setting [5]) it was 1.08 ± 0.02; in experiment [1] (setting [6]), 10.7; in experiment [1] (setting [9]), 10.7 ± 0.6. Besides, the fold induction at 10 µM in experiment [2] (setting [4]) was 1.13; in experiment [1] (setting [7]) it was 8.41; in experiment [1] (setting [11]), 8.41 ± 0.31. Further, in experiment [1] (QBI293 cells, 10 uM compound), the “AcTub (10 uM - normalized)” value is on record as 0.81. For the same molecule, in experiment [1] (setting [8]), the “AcTub 1 μM, fold-change compared to positive control compound 5 (100 nM) (in parentheses)” value (“AcTub 1 μM, fold-change” for short) turned out to be 1.04 fold-change. The “AcTub 10 μM, fold-change compared to positive control compound 5 (100 nM) (in parentheses)” value (from here on “AcTub 10 μM, fold-change”) in experiment [1] (setting [10]) was found to be 0.81 fold-change.
On to `CC(C)[C@H](Nc1c(-c2c(F)cc(OCCCN(C)C)cc2F)c(Cl)nc2ncnn12)C(F)(F)F` [Compound 23, (S)-3-(4-(5-Chloro-7-((1,1,1-trifluoro-3-methylbutan-2-yl)amino)-[1,2,4]triazolo[1,5-a]pyrimidin-6-yl)-3,5-difluorophenoxy)-N,N-dimethylpropan-1-aminium Formate], for which the fold induction at 1 µM in experiment [2] (setting [3]) came out at 0.87; in experiment [1] (setting [6]) it was 12. In addition, the fold induction at 10 µM in experiment [2] (setting [12]) amounted to 1.13 ± 0.02; in experiment [1] (setting [7]), 2.05. Further, in experiment [1] (QBI293 cells, 10 uM compound), the “AcTub (10 uM - normalized)” value came to 0.22. Besides, the “AcTub 1 μM, fold-change” value in experiment [1] (setting [8]) turned out to be 1.26 fold-change. The “AcTub 10 μM, fold-change” value in experiment [1] (setting [10]) worked out at 0.22 fold-change.
For `C[C@@H](Nc1c(-c2c(F)cc(OCCCN(C)C)cc2F)c(Cl)nc2ncnn12)C(C)(C)C` [Compound 24, (R)-3-(4-(5-Chloro-7-((3,3-dimethylbutan-2-yl)amino)-[1,2,4]triazolo[1,5-a]pyrimidin-6-yl)-3,5-difluorophenoxy)-N,N-dimethylpropan-1-aminium Formate], the fold induction at 1 µM was found to be 0.97 in experiment [2] (setting [3]), 0.97 ± 0.06 in experiment [2] (setting [5]), 6.75 in experiment [1] (setting [6]) and 6.75 ± 0.32 in experiment [1] (setting [9]). The fold induction at 10 µM in experiment [2] (setting [4]) turned out to be 0.97; in experiment [1] (setting [7]) it was 2.99; in experiment [1] (setting [11]) it was 2.99 ± 0.02. The “AcTub (1 uM - normalized)” value in experiment [1] (QBI293 cells, 1 uM compound) was 1.02. Further, the “AcTub (10 uM - normalized)” value in experiment [1] (QBI293 cells, 10 uM compound) is 0.45. Moreover, the “AcTub 10 μM, fold-change” value in experiment [1] (setting [10]) was found to be 0.45 fold-change.
As to `C[C@H](Nc1c(-c2c(F)cc(OCCCN(C)C)cc2F)c(Cl)nc2ncnn12)C(C)(C)C` [Compound 27, (S)-5-Chloro-6-(4-(3-(dimethylamino)propoxy)-2,6-difluorophenyl)-N-(3,3-dimethylbutan-2-yl)-[1,2,4]triazolo[1,5-a]pyrimidin-7-aminium Formate], the fold induction at 1 µM is 0.76 in experiment [2] (setting [3]), 0.76 ± 0.02 in experiment [2] (setting [5]), 8.41 in experiment [1] (setting [6]) and 8.41 ± 0.24 in experiment [1] (setting [9]). For the same molecule, the fold induction at 10 µM in experiment [2] (setting [4]) turned out to be 0.92; in experiment [2] (setting [12]) it was 0.92 ± 0.03; in experiment [1] (setting [7]), 4.33; in experiment [1] (setting [11]), 4.33 ± 0.21. Further, the “AcTub (1 uM - normalized)” value in experiment [1] (QBI293 cells, 1 uM compound) is listed as 1.27. Further, the “AcTub (10 uM - normalized)” value in experiment [1] (QBI293 cells, 10 uM compound) came out at 0.65. The “AcTub 1 μM, fold-change” value in experiment [1] (setting [8]) turned out to be 1.27 fold-change. The “AcTub 10 μM, fold-change” value in experiment [1] (setting [10]) was determined as 0.65 fold-change.
Take `C[C@H](Nc1c(-c2c(F)cc(OCCCN(C)C)cc2F)c(Cl)nc2ncnn12)C1CC1` [Compound 31, (S)-3-(4-(5-Chloro-7-((1-cyclopropylethyl)amino)-[1,2,4]triazolo[1,5-a]pyrimidin-6-yl)-3,5-difluorophenoxy)-N,N-dimethylpropan-1-aminium Formate]: the fold induction at 1 µM in experiment [2] (setting [3]) is 0.59; in experiment [2] (setting [5]), 0.59 ± 0.06; in experiment [1] (setting [6]), 6.26; in experiment [1] (setting [9]), 6.26 ± 0.11. Moreover, the fold induction at 10 µM in experiment [2] (setting [4]) was 0.91; in experiment [2] (setting [12]), 0.91 ± 0.09. Further, in experiment [1] (QBI293 cells, 1 uM compound), the “AcTub (1 uM - normalized)” value is given as 0.93. Moreover, the “AcTub 1 μM, fold-change” value in experiment [1] (setting [8]) is on record as 0.93 fold-change.
In the case of `C[C@@H](Nc1c(-c2c(F)cc(OCCCN(C)C)cc2F)c(Cl)nc2ncnn12)C1CC1` [Compound 32, (R)-3-(4-(5-Chloro-7-((1-cyclopropylethyl)amino)-[1,2,4]triazolo[1,5-a]pyrimidin-6-yl)-3,5-difluorophenoxy)-N,N-dimethylpropan-1-aminium Formate], the fold induction at 1 µM in experiment [2] (setting [3]) amounted to 1.04; in experiment [1] (setting [6]), 10.4; in experiment [1] (QBI293, 4 h, read-out: AcTub 1 μM, fold-change compared to vehicle (DMSO)-treated cells) it was 10.4 ± 0.12. Further, the fold induction at 10 µM in experiment [2] (setting [4]) is 1.31; in experiment [2] (QBI293, 4 h, read-out: α-Tub 10 μM, fold-change compared to vehicle (DMSO)-treated cells), 1.31 ± 0.18; in experiment [1] (QBI293, 4 h, read-out: AcTub 10 μM, fold-change compared to vehicle (DMSO)-treated cells) it was 0.56 ± 0.08. For the same molecule, in experiment [1] (QBI293 cells, 1 uM compound), the “AcTub (1 uM - normalized)” value came to 1.55. Moreover, the “AcTub (10 uM - normalized)” value in experiment [1] (QBI293 cells, 10 uM compound) stood at 0.08. In addition, in experiment [1] (setting [8]), the “AcTub 1 μM, fold-change” value is reported as 1.55 fold-change. Besides, the “AcTub 10 μM, fold-change” value in experiment [1] (setting [10]) was 0.08 fold-change.
